The source of these data is patent US8981087B2, “Benzo [E] [1,3] oxazin-4-one derivatives as phosphoinositide 3-kinase inhibitors” (Karus Therapeutics Limited, priority 2009, dated 2015).

Amino acid sequences for entries named in this document (tags omitted). A change or cut given only in a name is not applied to a line headed by its entry.
UniProt P48736: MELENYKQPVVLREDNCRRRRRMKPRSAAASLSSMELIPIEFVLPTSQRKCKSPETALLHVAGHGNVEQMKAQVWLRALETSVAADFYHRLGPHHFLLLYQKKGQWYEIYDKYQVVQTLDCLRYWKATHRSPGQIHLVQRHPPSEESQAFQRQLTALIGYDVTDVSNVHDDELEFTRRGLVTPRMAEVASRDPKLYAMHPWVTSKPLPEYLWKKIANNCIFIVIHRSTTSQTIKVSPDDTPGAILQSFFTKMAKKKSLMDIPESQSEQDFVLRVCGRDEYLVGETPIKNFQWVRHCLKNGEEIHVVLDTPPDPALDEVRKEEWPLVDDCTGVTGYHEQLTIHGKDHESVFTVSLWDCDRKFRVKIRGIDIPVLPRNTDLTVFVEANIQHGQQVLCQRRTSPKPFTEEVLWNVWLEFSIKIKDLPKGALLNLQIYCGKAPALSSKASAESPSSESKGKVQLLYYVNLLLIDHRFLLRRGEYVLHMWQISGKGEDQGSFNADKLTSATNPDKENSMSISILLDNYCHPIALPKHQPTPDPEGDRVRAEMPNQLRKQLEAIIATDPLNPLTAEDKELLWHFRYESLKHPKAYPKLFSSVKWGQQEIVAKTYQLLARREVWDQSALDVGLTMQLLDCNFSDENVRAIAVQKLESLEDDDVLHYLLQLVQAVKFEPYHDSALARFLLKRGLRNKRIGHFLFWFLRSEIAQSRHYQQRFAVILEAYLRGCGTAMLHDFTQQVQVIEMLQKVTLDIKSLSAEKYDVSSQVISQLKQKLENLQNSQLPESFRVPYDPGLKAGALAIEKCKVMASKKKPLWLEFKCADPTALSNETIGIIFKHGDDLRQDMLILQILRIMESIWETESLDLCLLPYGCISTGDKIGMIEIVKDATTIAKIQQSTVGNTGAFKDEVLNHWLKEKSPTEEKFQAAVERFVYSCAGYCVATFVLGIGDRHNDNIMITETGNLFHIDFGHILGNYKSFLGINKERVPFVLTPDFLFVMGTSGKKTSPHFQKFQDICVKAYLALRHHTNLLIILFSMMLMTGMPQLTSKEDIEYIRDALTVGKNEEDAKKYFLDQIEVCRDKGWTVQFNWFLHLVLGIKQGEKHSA
UniProt P42338: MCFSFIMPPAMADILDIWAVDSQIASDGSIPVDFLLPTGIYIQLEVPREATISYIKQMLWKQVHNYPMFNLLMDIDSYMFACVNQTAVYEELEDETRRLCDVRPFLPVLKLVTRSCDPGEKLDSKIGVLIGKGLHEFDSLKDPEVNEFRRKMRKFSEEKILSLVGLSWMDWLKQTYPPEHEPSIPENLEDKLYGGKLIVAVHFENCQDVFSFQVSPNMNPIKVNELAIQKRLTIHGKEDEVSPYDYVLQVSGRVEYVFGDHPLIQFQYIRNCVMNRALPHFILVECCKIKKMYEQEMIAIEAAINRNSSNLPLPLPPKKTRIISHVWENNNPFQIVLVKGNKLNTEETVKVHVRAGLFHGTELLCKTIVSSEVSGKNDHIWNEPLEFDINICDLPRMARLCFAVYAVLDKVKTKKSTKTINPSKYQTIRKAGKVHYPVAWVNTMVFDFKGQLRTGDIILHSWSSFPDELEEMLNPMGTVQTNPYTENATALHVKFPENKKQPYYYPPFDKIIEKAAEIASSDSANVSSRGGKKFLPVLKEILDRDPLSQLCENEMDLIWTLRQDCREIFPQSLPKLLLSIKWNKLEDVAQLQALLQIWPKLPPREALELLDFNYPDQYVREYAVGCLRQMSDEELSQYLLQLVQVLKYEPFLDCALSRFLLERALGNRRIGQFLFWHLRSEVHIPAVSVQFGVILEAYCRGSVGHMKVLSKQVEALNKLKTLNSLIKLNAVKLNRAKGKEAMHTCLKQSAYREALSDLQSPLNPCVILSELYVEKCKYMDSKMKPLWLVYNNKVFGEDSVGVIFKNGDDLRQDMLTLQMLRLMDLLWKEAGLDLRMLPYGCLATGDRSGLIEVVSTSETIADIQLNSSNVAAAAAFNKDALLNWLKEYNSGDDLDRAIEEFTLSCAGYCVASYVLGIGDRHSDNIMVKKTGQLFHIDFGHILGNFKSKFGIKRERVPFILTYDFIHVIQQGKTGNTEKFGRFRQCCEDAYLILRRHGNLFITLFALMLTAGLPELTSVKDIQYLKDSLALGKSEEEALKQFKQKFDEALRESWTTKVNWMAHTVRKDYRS

As usually defined, the IC50 is the concentration that gives 50% inhibition.

One assay has as its target PI3K-p110γ (Homo sapiens, UniProt P48736). Briefly: Biochemical PI3K-p110γ inhibition. The conditions noted are these: Class IB enzyme.
In a further assay the target is PI3K-p110β (Homo sapiens, UniProt P42338). Briefly: Biochemical PI3K-p110β inhibition. The conditions noted are these: Class IA enzyme.

Structures are written as SMILES.

In the case of `O=c1cc(N2CCOCC2)oc2c(-c3ccccc3)cccc12` [LY294002, reference compound], the IC50 against PI3K-p110γ amounted to 4.11 µM; against PI3K-p110β, 1.7 µM.
